Only a part is listed here, and it is no random draw. Calls of active or inactive are those of the source.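 How the source made its calls: active means inhibition above the primary screen's cutoff, the mean inhibition of all screened compounds plus 3 SD (cut at about 13% in these data); inactive means the rest.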

Amino acid sequences for entries named in this document (tags omitted). A change or cut given only in a name is not applied to a line headed by its entry.
UniProt O60755: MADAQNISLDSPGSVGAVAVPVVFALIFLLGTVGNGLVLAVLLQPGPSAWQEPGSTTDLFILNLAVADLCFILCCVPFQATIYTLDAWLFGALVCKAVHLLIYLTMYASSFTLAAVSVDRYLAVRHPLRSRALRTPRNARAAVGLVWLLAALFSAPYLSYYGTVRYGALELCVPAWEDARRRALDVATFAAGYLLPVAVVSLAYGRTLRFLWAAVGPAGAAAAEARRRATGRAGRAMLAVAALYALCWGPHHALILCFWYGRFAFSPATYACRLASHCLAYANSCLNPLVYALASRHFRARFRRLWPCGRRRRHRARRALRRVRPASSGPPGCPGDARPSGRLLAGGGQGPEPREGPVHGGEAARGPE

The target in this test is Galanin receptor type 3 (Homo sapiens) (UniProt O60755). Nature of the test: GalR3 antagonist hit confirmation, cell-based, fluorescence, triplicate (AID 652245).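 Further: 0% = forskolin plus galanin and 100% = forskolin alone with DMSO.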 The settings on record: HEK293 GalR3 CNG cAMP biosensor, membrane potential fluorescence; at 3 µM; stronger effect = higher value; challenged with forskolin and galanin at EC90; galR3 fused to GalR1 carboxy tail.
As for `CCc1nc2c(n1)c1c(non1O)c1c2no[n+]1[O-]`, the inhibition – broadly, the drop in the measured response relative to a control, in per cent – is active: 41.8%.
Consider `Cc1ccc(NP(=O)(Oc2ccccc2)Oc2ccccc2)nc1`, for which the inhibition is inactive: 0.61%.
For the molecule `CC1(CBr)Cn2c(nc3ccccc3c2=O)S1` (stereo not drawn), the inhibition was inactive: 8.52%.

(Values after PubChem BioAssay AID652245 (The Scripps Research Institute Molecular Screening Center, 2013).)
